{
  "source": "PubChem BioAssay (Tox21)",
  "note": "Where “and” joins values, the source holds several entries; their conditions need not be identical. Identical values can stand only once. Only a part is listed here, and it is no random draw. Results filed as inconclusive are left out. Calls of active or inactive are those of the source. The call rests on the fitted dose curve; in most records, active means well fitted inhibition curve with a large enough effect in the signal ratio in the repeat runs (not every such curve was filed as active); inconclusive means weak or mixed curves, or effect the other way; inactive means flat fitted curve, though single readings scatter; the % refers to the signal ratio. On the % scale 0 is the no-effect control and ±100 the full control effect.",
  "data": [
    {"test": "cAMP Responsive Elements (CRE) small molecule antagonists, cell-based qHTS assay (AID 1963591)", "details": "CRE-bla HEK293T, beta-lactamase FRET ratio; at 42.4 µM (top of the series)", "from_the_text": "(§1) U.S. Tox21 Program National Center for Advancing Translational Sciences [NCATS] Division of Preclinical Innovation [DPI] U.S. Environmental Protection Agency [EPA] National Institutes of Environmental Health Sciences [NIEHS] National Toxicology Program [NTP] U.S. Food and Drug Administration [FDA] Tox21 Assay Overview: CREB (cyclic-AMP Responsive Element Binding Protein) is a cellular transcription factor. It binds to certain DNA sequences called cAMP Responsive Elements (CRE) and regulates the transcription of the genes. […] This cell line can be used to find agonists/antagonists of the cyclic AMP signaling pathway. The activation of the report gene under culture conditions can be detected by fluorescence intensity. This cell line has been used to screen the Tox21 10K compound library to […].\n(§2) Tox21 Assay Protocol Summary: CRE-bla Hek 293T cells were suspended in assay medium (DMEM containing 10% dialyzed FBS, 0.1 mM NEAA, 1 mM sodium pyruvate and 25 mM HEPES) and dispensed at 2,000 cells/4 uL /well into 1536-well black wall/clear bottom plates using a Multidrop Combi (ThermoFisher Scientific, Waltham, MA) dispenser. After the assay plates were incubated at 37 C/5% CO2 for 18 hrs, 23 nL of compounds dissolved in DMSO, positive controls or DMSO only was transferred to the assay plate by a pintool workstation (Kalypsys, San Diego, CA), followed by addition of 1 […] uL of 1.25uM NKH477 (0.25 uM as final concentration) in assay medium using a Flying Reagent Dispenser (Aurora Discovery, San Diego, CA). The plates were incubated at 37 C and 5% CO2 for 3 hrs. Then 1 uL of LiveBLAzer B/G FRET substrate (Invitrogen, Carlsbad, CA) was added to each well using Bioraptr Flying Reagent Dispenser (FRD, Aurora Discovery, San Diego, CA). The plates were incubated at room temperature for 2 h.", "values": [
      {"smiles": "OCCSCCO", "activity change, negative = inhibition": "inactive: 9.8%"},
      {"smiles": "C/C1=C2N=C(/C=C3N=C(/C(C)=C4\\[N-][C@@](C)([C@@H]5N=C1[C@](C)(CCC(=O)NC[C@@H](C)OP(=O)([O-])O[C@H]1[C@@H](O)[C@@H](n6cnc7cc(C)c(C)cc76)O[C@@H]1CO)[C@H]5CC(N)=O)[C@@](C)(CC(N)=O)[C@@H]4CCC(N)=O)[C@@](C)(CC(N)=O)[C@@H]\\3CCC(N)=O)C(C)(C)[C@@H]/2CCC(N)=O.[C-]#N.[Co+3]", "activity change, negative = inhibition": "inactive: -1.89%"},
      {"smiles": "CCOP(=O)(CC)Oc1ccc([N+](=O)[O-])cc1", "note": "(stereo not given)", "activity change, negative = inhibition": "inactive: -10.5%"}
    ]},
    {"test": "cAMP Responsive Elements (CRE) small molecule antagonists, cell-based qHTS assay (AID 1963591)", "details": "CRE-bla HEK293T, beta-lactamase FRET ratio; at 92.4 µM (top of the series)", "from_the_text": "as §1, §2", "values": [
      {"smiles": "O=[N+]([O-])[O-].[NH4+]", "activity change, negative = inhibition": "inactive: 1.54% and inactive: -4.37%"},
      {"smiles": "COP(C)(=O)OC", "activity change, negative = inhibition": "inactive: -2.72% and inactive: 2.6%"},
      {"smiles": "CCOP(=O)(CC)OCC", "activity change, negative = inhibition": "inactive: -4.18%"},
      {"smiles": "[NH4+].[O-][Cl+3]([O-])([O-])[O-]", "activity change, negative = inhibition": "inactive: -0.0474% and inactive: 16.8%"},
      {"smiles": "CN(C)CCCl", "activity change, negative = inhibition": "inactive: -0.727%"},
      {"smiles": "O=[N+]([O-])OCC(CO[N+](=O)[O-])(CO[N+](=O)[O-])CO[N+](=O)[O-]", "activity change, negative = inhibition": "inactive: -11.8%"},
      {"smiles": "Cc1c([N+](=O)[O-])cccc1[N+](=O)[O-]", "activity change, negative = inhibition": "inactive: 8.79% and inactive: -1.59%"},
      {"smiles": "OCCSCCO", "activity change, negative = inhibition": "inactive: 4.55%"},
      {"smiles": "CP(=O)(O)OCCC[Si](O)(O)O", "activity change, negative = inhibition": "inactive: 2.16%"},
      {"smiles": "O=[N+]([O-])c1cccc([N+](=O)[O-])c1", "activity change, negative = inhibition": "inactive: 2.29%"},
      {"smiles": "CC(C)N(CCO)C(C)C", "activity change, negative = inhibition": "inactive: 2.56%"},
      {"smiles": "Nc1cc([N+](=O)[O-])cc([N+](=O)[O-])c1O", "activity change, negative = inhibition": "inactive: 14.4%"},
      {"smiles": "CC(C)OP(C)(=O)OC(C)C", "activity change, negative = inhibition": "inactive: -14.9% and inactive: -10.3%"},
      {"smiles": "N#CBr", "activity change, negative = inhibition": "inactive: -4.86%"},
      {"smiles": "N=C(N)N[N+](=O)[O-]", "activity change, negative = inhibition": "inactive: -0.378%"},
      {"smiles": "COc1ccc([N+](=O)[O-])cc1[N+](=O)[O-]", "activity change, negative = inhibition": "inactive: -0.659%"},
      {"smiles": "Cc1ccc([N+](=O)[O-])cc1[N+](=O)[O-]", "activity change, negative = inhibition": "inactive: 4.61% and inactive: -13.9%"}
    ]}
  ]
}
